Reference: patent publication US6812034B2, “Fetuin-MGP-mineral complex in serum assayed to determine calcification risk” (The Regents of the University of California, priority 2000, dated 2004)

Assays:
[1] = serum levels of calcium and phosphate in rats treated with vitamin D plus warfarin; type: in vivo, rat; settings: 0.25 mg P/kg/day; 84 h
[2] = weight, tibia length and serum calcium and phosphate in warfarin-treated rats; type: in vivo, rat; settings: 0.025 mg P/kg/day plus warfarin, 4 weeks

- Ending wt [2]: 301 ± 8 gm
SMILES: NCCCC(O)(P(=O)(O)O)P(=O)(O)O [Alendronate, (4-amino-1-hydroxybutylidene)bis-phosphonate]
- Serum Ca [1]: 14.5 ± 0.1 mg/dL
